In this experiment the test system is UDP-glucuronosyltransferases (UGTs) in pooled HLMs. The experiment is described as follows: Glucuronidation of hydroxymidazolams in HLMs. The experiment is classed as in vitro ADME, human.

With `O=C(O)Cc1ccccc1Nc1c(Cl)cccc1Cl` [diclofenac], the “effect on glucuronide formation from 1’-OH-MDZ or 4-OH-MDZ” value is “decreased glucuronide formation significantly”.

The values are drawn from PMC3830930 (Clinical pharmacology and therapeutics, 2011).
